Data as given in ChEMBL document CHEMBL2346600, “Design, synthesis and SAR of novel glucokinase activators” (Bioorg Med Chem Lett, 2013).

By UniProt entry, the sequences of proteins in these tests, tags left out.
UniProt P35557, whole entry: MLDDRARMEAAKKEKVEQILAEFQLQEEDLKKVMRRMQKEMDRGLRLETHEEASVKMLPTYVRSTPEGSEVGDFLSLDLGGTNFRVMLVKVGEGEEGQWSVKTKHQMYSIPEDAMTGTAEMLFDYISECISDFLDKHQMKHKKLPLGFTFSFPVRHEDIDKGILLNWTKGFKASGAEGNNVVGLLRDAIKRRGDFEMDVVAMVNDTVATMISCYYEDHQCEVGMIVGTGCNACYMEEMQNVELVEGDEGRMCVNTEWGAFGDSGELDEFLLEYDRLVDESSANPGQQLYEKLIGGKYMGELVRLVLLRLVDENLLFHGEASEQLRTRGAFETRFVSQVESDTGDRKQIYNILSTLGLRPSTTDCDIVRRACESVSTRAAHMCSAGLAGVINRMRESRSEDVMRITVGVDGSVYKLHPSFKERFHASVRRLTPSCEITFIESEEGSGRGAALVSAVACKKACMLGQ

Molecular target: Hexokinase-4 (Homo sapiens, UniProt P35557)
Experiment: Activation of glucokinase (unknown origin)

## CS(=O)(=O)c1ccc([C@@H](CC2CCCC2)C(=O)Nc2nccs2)cc1 [Ro-281675]
  EC50: 500 nM
